The values that follow come from patent US20190154879A1, “Silicone Hydrogel Contact Lenses Having Improved Lubricity” (CooperVision International Holding Company, LP, priority 2016, published 2019).

The nature of this series: Hydrophilic-lipophilic balance (HLB) value. Format: physicochemical. To be noted: calculated as twenty times molecular weight of hydrophilic portion divided by total molecular weight.

Turning to “D-a-Tocopheryl polyethylene glycol 1000 succinate”, the HLB value result is “about 13”.
